Drawing on ChEMBL document CHEMBL5634157, “Design and synthesis of certain 7-Aryl-2-Methyl-3-Substituted Pyrazolo{1,5-a}Pyrimidines as multikinase inhibitors” (Eur J Med Chem, 2023), this text covers inhibition for one compound.

Chains of the proteins cited; added tags and fusions are not shown.
UniProt P68400, whole entry, looked up: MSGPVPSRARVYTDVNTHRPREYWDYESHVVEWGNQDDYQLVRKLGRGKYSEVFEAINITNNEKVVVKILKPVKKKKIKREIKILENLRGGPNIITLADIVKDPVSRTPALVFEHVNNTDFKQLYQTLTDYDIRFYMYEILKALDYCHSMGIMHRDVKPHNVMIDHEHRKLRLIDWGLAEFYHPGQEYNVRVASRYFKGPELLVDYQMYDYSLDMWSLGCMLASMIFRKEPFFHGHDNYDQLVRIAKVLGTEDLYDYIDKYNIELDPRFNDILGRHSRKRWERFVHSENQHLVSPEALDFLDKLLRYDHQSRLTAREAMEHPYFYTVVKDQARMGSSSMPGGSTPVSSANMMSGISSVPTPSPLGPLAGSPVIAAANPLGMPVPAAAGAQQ

The test has as its target Casein kinase II subunit alpha (Homo sapiens, UniProt P68400). The experiment in a line: Inhibition of CK2alpha in human HCT-116 cells by Western blotting analysis. In kind it is cell-based.

Activity calls are given as the source filed them. The rule behind the calls is not given here.

For `COc1ccc(-c2ccnc3c(-c4noc(C)n4)c(C)nn23)cc1`, the inhibition result is “Active”.
